Test [1] deals with hsa-miR-590-5p (MIMAT0003258). Description: Micro RNA microarray, change of hsa-miR-590-5p expression. The test is classed as cell-based, human.
The test system of test [2] is hsa-miR-28-5p (MIMAT0000085). Description: Micro RNA microarray, change of hsa-miR-28-5p expression. The following applies: A549, treated at IC20 for 48 hours, versus control. Type of test: cell-based, human.

With `CCC=O` [propionaldehyde], the “Change (Fold) hsa-miR-590-5p” value in test [1] (A549, treated at IC20 for 48 hours, microarray, versus control) worked out at 1.229 Fold. For the same compound, the “expression level of hsa-miR-590-5p compared to the normal control group” value in test [1] (result in words) is listed as “up-regulated”. Besides, the “Change (Fold) hsa-miR-28-5p” value in test [2] is listed as 1.743 Fold.

The record behind these values is patent US8716192B2, “Micro RNAs for identification of exposure to lower aliphatic saturated aldehydes and the method of identification using thereof” (Korea Institute of Science and Technology, priority 2012, dated 2014).
